Earlier results on one compound are cited in patent publication US5688992A, “O-malonyltryrosyl compounds, O-malonyltryrosyl compound-containing peptides, and use thereof” (The United States of America as represented by the …, priority 1995, dated 1997).

By UniProt entry, the sequences of proteins in these tests, tags left out. Residues count along the entry.
UniProt P27986, 624-718 limits assumed: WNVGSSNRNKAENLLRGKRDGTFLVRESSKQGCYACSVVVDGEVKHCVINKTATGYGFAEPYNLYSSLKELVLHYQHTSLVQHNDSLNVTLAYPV

Structures are written as SMILES.

This series deals with C-terminal SH2 domain of PI 3-kinase p85 (Homo sapiens, UniProt P27986). Particulars: read-out: IC50 ± S.E., p85 (C-terminal) SH2 domain; X = pTyr or L-F2Pmp; previously reported (Burke 1994); cited from earlier work.

What is called IC50 is the midpoint of a concentration-inhibition curve. Take `CSCC[C@H](NC(=O)[C@@H]1CCCN1C(=O)[C@@H](NC(=O)[C@H](Cc1ccc(OP(=O)(O)O)cc1)NC(=O)[C@H](CC(=O)O)NC(C)=O)C(C)C)C(=O)N[C@@H](CC(C)C)C(N)=O`: the IC50 is 0.15 µM.
